Source: US20130089564A1

Biological target: rat glandular kallikrein (40 kDa protein isolated from rat submandibular gland) (rat) (UniProt P00758)
Experiment: cell-based or functional assay

inhibition in the BAEE assay (esterase activity): 90% | inhibition of the enzymatic activity (BAEE assay): 40%
Substance: aprotinin (from UniProt P00974 36-93)
